Test results published in patent publication US9505780B2, “Thienopyranones as kinase and epigenetic inhibitors” (SignalRx Pharmaceuticals, Inc., priority 2014, dated 2016).

Assays:
BRD4-1 = BRD4-1 (Homo sapiens (Human), UniProt O60885); assay: BRD4 region 1 (BRD4-1) inhibition; type: biochemical; conditions: read-out: BRD4-1 IC50
BRD4-2 = BRD4-2 (Homo sapiens (Human), UniProt O60885); assay: BRD4 region 2 (BRD4-2) inhibition; type: biochemical; conditions: read-out: BRD4-2 IC50

Cc1nnc(-c2ccc(-c3csc4c(=O)cc(N5CCOCC5)oc34)cc2)o1
IC50 (BRD4-1): 5.48 µM | IC50 (BRD4-2): 11.6 µM
